Assays:
[1] = test system: doxorubicin (Dox)-induced aging mouse model; test: Dox-induced aging mouse model, physical state and SA-β-Gal staining of frozen organ sections (Example 10); settings: DNJ given simultaneously with intraperitoneal Dox for one week, FIG. 18
Description: An effect of drugs in delaying aging in vivo was detected using a mouse model. Male C57BL/6J mice were selected in the experiment, and randomly divided into a normal group (Control), an aging group (Aging), and an administration group (Aging + DNJ). Dox was intraperitoneally injected into the mice continually for one week to construct an aging mouse model; and the administration group was treated with DNJ simultaneously during the construction of aging mice. The states of the mice were recorded, the mice were sacrificed after one week, and organs such as livers and kidneys were immediately collected for subsequent detection. A cellular senescence β-galactosidase staining kit (Beyotime) was used. Frozen sections were fixed with a fixative for 15 minutes, rinsed 3 times with PBS, and incubated in an SA-β-gal solution at 37°C in the dark for 16-18 hours. The proportion of a stained area was quantitatively determined using ImageJ (NIH) software.

[2] = test system: human umbilical vein endothelial cells (Huvec cells); test: SA-β-Gal staining, H2O2-induced senescence, simultaneous administration (Example 2); settings: 30 µM, simultaneous treatment with 200 µM H2O2 for 24 hours; FIG. 10
Description: (§1) Culture conditions for human umbilical vein endothelial cells (Huvec cells) are as follows: The Huvec cells were cultured in an ECM culture medium (SclenCell) and passaged and seeded when cultured to a density of 70% to 80% in a culture dish. The cells were washed 1 time with PBS, 0.25% trypsin (Gibco) was added for digestion for 2-3 minutes, and then an ECM culture medium was added to terminate the digestion. The cells were pipetted to be detached, collected into a 15 mL centrifuge tube, and centrifuged at 1,000 rpm for 5 minutes. The supernatant was discarded, a new ECM culture medium was added, and the cells were pipetted uniformly, seeded into a 12-well or 24-well plate (at a density of 70% to 80%), and cultured in a 5% CO2 incubator at 37°C. After cell adherence, the next operation was performed.
(§2) Working concentrations of each drug and modeling agent: The concentrations of DNJ, DNJ-1, DNJ-3a, DNJ-3b, DNJ-5a, and NMN were all 30 µM; and the concentration of the modeling agent, H2O2, was 200 µM.
(§3) The workflow for SA-β-Gal staining of the cells is as follows: For the cells cultured in a 6-well plate, a cell culture solution was sucked away, the cells were washed 1 time with PBS, and 1 mL of an SA-β-Gal staining fixative was added for fixation at room temperature for 15 minutes. For other types of culture plates, the dosages of the fixative and subsequent solutions were used in operation with reference to this ratio. The cell fixative was sucked away, and the cells were washed 3 times with PBS, for 3 minutes each time. PBS was sucked away, and 1 mL of a staining working solution was added to each well. A method for formulating the staining working solution is as follows: A β-galactosidase staining solution A (10 µL), a β-galactosidase staining solution B (10 µL), a β-galactosidase staining solution C (930 µL), and an X-Gal solution (50 µL) were used. The cells were incubated overnight at 37°C, and the 6-well plate was sealed with a parafilm or a plastic wrap to prevent evaporation. Photographing was performed for record using a 20× objective under a microfluidic live cell real-time analysis system (Thermo), cell counting was performed using ImageJ software (National Institutes of Health, v 1.8.0), and ANOVA data analysis of multiple groups (mean ± SD) was performed using Graphpad Prism software (GraphPad Software, v 9.0.0).
A basic method refers to Example 1, with differences in the administration method as follows: while inducing by H2O2 and constructing a human umbilical vein endothelial cell senescence model, treatment with DNJ or its derivatives was performed separately, and the anti-aging activity of drugs was detected.

[3] = test system: human umbilical vein endothelial cells (Huvec cells); test: SA-β-Gal staining, D-galactose-induced senescence, pre-administration (Example 4); settings: 30 µM, pre-administration 24 hours, then 40 g/L D-gal 24 hours; FIG. 12
Description: as §1, §2, §3
The anti-aging activity of drugs was detected in a stress-induced senescence model of human umbilical vein endothelial cells induced by D-galactose. A basic method refers to Example 1, with differences in the modeling method as follows: a cell senescence model was constructed by stimulation with 40 g/L D-gal for 24 hours.

## OC[C@H]1NC[C@H](O)[C@@H](O)[C@@H]1O
[1]
  physical states, motor abilities, and the like of the mice: significantly improved
[1]; frozen sections
  number of SA-β-Gal staining-positive cells in organs such as kidneys: significantly reduced
[2]
  production of senescent cells induced by H2O2 (number of SA-β-Gal staining-positive cells): significantly reduce
[3]
  number of SA-β-Gal staining-positive cells: significantly reduced
